The text below walks through data of ChEMBL document CHEMBL1125142, “Highly selective kappa-opioid analgesics. 3. Synthesis and structure-activity relationships of novel N-[2-(1-pyrrolidinyl)-4- or -5-substituted-cyclohexyl]arylacetamide derivatives” (1990).

Sequences of proteins named here, by UniProt entry; tags and fusion partners are left off. A change or cut given only in a name is not applied to a line headed by its entry.
UniProt P41144: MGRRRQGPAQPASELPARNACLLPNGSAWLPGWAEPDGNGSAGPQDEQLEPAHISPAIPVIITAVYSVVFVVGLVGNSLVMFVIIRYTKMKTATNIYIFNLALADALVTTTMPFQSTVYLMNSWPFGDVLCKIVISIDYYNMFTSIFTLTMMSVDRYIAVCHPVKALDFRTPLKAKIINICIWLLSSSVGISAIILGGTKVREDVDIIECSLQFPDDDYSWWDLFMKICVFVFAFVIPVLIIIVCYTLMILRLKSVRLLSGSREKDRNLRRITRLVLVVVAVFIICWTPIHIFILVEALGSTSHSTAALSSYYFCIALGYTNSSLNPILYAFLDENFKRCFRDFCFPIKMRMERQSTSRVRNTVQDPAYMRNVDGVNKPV

The structures appear in SMILES notation.

Experiment [1] concerns the target Kappa-type opioid receptor (Cavia porcellus) (UniProt P41144). The experiment is described as follows: Dose required to produce 50 percent of maximum possible analgesic activity was evaluated by rat paw pressure test (iv).
Experiment [2] has the same target. The experiment can be described thus: In vitro binding selectivity for mu to kappa opioid receptors.

As for `CO[C@H]1CC(N(C)C(=O)Cc2cccc3sccc23)[C@@H](N2CCCC2)C[C@H]1OC` (some centres not stated), the Ratio in experiment [1] amounted to 51.

On to `CN(C(=O)Cc1cccc2sccc12)[C@H]1CCCC[C@@H]1N1CCCC1`, for which the Ratio in experiment [2] was 110.
